For the assay, the target named is T1, human calcium receptor (Homo sapiens, UniProt P41180).
T1 construct: expressed in transfected cells; host or cells: Xenopus laevis oocytes injected with cRNA
T1 sequence (P41180 20-1078): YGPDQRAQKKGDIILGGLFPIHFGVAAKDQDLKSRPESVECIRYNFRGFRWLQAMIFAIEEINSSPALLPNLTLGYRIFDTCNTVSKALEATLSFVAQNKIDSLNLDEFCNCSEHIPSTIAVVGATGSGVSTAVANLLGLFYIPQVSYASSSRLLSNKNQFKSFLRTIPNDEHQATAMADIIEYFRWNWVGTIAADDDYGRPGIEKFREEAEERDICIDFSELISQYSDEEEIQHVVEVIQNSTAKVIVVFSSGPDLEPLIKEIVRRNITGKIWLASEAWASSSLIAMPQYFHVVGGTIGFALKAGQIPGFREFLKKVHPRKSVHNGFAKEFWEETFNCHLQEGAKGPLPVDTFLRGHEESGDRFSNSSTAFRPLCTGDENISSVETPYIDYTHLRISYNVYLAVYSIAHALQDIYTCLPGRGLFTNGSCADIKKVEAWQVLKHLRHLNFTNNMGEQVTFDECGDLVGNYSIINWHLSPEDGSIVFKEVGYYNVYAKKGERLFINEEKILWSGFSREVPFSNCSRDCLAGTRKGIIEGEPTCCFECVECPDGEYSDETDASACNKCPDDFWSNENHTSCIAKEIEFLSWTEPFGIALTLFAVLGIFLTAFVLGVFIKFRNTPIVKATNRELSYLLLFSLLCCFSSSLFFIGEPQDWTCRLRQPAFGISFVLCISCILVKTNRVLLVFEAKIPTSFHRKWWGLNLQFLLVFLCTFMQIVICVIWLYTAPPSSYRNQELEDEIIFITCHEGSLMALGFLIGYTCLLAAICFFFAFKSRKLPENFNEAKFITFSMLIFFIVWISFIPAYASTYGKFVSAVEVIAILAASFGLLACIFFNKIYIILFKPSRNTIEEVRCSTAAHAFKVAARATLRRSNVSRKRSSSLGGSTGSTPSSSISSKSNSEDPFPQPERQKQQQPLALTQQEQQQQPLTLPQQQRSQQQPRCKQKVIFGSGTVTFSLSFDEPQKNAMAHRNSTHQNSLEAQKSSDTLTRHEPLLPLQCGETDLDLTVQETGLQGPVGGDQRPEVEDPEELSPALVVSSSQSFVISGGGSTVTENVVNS
As to the kind of experiment: Ca ion concentration-dependent Cl ionic current measurement in Xenopus laevis oocytes expressing the calcium receptor. In kind it is cell-based. Here is the method: For evaluation of the calcium receptor-activating action, a Ca ion concentration-dependent Cl ionic current measuring method using a Xenopus laevis oocyte expression system was used. If each activator is added to Xenopus laevis oocytes expressing the calcium receptor, intracellular Ca ions increase. Then, the Ca ion concentration-dependent Cl channel opens, and the intracellular current value changes as an ionic current. By measuring the change in the intracellular current value, whether the calcium receptor-activating action is present or not can be determined.
Specifically, the abdomen of Xenopus laevis was opened, and an egg batch was taken out and then treated with a 1% collagenase solution at 20° C. for 2 hours to obtain individual oocytes. Into the oocytes, 50 nl of 1 μg/μl receptor cRNA or 50 nl of sterilized water per oocyte were injected by using a micro glass capillary, and the oocytes were cultured at 18° C. for 2 to 3 days. For the culture, a solution obtained by adding 2 mM pyruvic acid, 10 U/ml penicillin, and 10 μg/ml streptomycin to the solution in Example 2 was used. After the culture, a test solution was added to the oocytes injected with cRNA or sterilized water. Electrophysiological measurement was performed by using an amplifier Geneclamp 500 (manufactured by Axon) and recording software AxoScope 9.0 (manufactured by Axon). The oocytes were membrane potential-clamped at −70 mV by the double electrode potential clamp method, and the intracellular current was measured via the Ca ion concentration-dependent Cl ion channel. The maximum value of the intracellular current was defined as the response current value. […]
The calcium receptor-activating action of L-amino acids was evaluated by using the method described in Example 13. That is, oocytes injected with cRNA of the calcium receptor or sterilized water were prepared, and membrane potential-clamped at −70 mV by the double electrode potential clamp method. To the potential-clamped oocytes, alanine (10 mM), arginine (10 mM), asparagine (10 mM), aspartic acid (10 mM), cysteine (10 mM), glutamine (10 mM), glutamic acid (10 mM), glycine (10 mM), histidine (10 mM), isoleucine (10 mM), leucine (10 mM), lysine (10 mM), methionine (10 mM), phenylalanine (10 mM), proline (10 mM), serine (10 mM), threonine (10 mM), tryptophan (10 mM), tyrosine (10 mM), valine (10 mM), ornithine (10 mM), taurine (10 mM), or hydroxyproline (10 mM) was added, and Ca ion concentration-dependent Cl response current was measured. […] As for the above-described amino acids, the activating action is reported in Proc. Natl. Acad. Sci. USA, Apr. 25, 2000, 97(9): 4814-9.
The calcium receptor-activating action of D-cysteine was evaluated by using the method described in Example 13. That is, oocytes injected with cRNA of the calcium receptor or sterilized water were prepared, and membrane potential-clamped at −70 mV by the double electrode potential clamp method. To the potential-clamped oocytes, D-cysteine (10 mM), L-cysteine (10 mM), D-tryptophan (10 mM), or L-tryptophan (10 mM) was added, and Ca ion concentration-dependent Cl response current was measured.
The calcium receptor-activating action of a peptide was evaluated by using the method described in Example 13. That is, oocytes injected with cRNA of the calcium receptor or sterilized water were prepared, and membrane potential-clamped at −70 mV by the double electrode potential clamp method.

Data on five substances can be found in patent US20100105864A1, “PROPHYLACTIC OR THERAPEUTIC AGENT FOR DIARRHEA” (priority 2007, published 2010).

On to γ-Glu-Gly (EG), for which the “calcium receptor-activating action (Ca ion concentration-dependent Cl response current)” value (from here on “calcium receptor-activating action”) (peptide added at 500 μM) is reported as “definite calcium receptor-activating action”.

With γ-Glu-Thr (ET), where the note is “peptide added at 50 μM”, the “calcium receptor-activating action” value is “definite calcium receptor-activating action”. Turning to γ-Glu-Ala (EA), the “calcium receptor-activating action” value (peptide added at 50 μM) is “definite calcium receptor-activating action”. As for γ-Glu-Val (EV), the “calcium receptor-activating action” value (peptide added at 50 μM) is “definite calcium receptor-activating action”. For the substance γ-Glu-Met (EM), the “calcium receptor-activating action” value (peptide added at 500 μM) is listed as “definite calcium receptor-activating action”.
